From paper PMC9540496 (Clinical Pharmacology and Therapeutics, 2022)

Test: Phase I crossover DDI study: metformin
Conditions: 90% CIs within acceptance range of 80–125%

plasma exposure and CLr on co‐administration with abrocitinib: unaffected
SMILES: CN(C)C(=N)N=C(N)N [Metformin, metformin]
